The values that follow come from ChEMBL document CHEMBL4376880, “Developing Inhibitors of the p47phox-p22phox Protein-Protein Interaction by Fragment-Based Drug Discovery” (J Med Chem, 2020).

The target in test [1] is T1, Neutrophil cytosol factor 1 (Homo sapiens, UniProt P14598).
For test [2], the target named is T1, Neutrophil cytosol factor 1. The source holds these as a separate data set.
Test [3] has the same target. The source holds these as a separate data set.
Test [4] has the same target. The source holds these as a separate data set.

As for `CN1CCCN(Cc2ccc(CN)cc2)CC1`, the ΔTm – broadly, the change in melting temperature against a reference sample – in test [1] amounted to 0.5 °C; in test [2], 0.3 °C; in test [3] it was 1.1 °C; in test [4], 2 °C.
